# Binding of CDR-mutated scFvs to a peptide of the spike HR2 region

Reference: Li et al. 2023, doi:10.1038/s41467-023-39022-2. File: FLAb, binding data.

Antigen: PDVDLGDISGINAS, a 14-residue peptide of the SARS-CoV-2 spike HR2 region.

The variants keep the heavy chain, the linker and the frameworks of Ab-14 (scFv order VH, three GGGGS repeats, VL).
VH: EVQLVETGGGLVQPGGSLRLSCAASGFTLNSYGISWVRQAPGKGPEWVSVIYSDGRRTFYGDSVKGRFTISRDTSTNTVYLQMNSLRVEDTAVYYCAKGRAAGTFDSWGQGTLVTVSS
VL: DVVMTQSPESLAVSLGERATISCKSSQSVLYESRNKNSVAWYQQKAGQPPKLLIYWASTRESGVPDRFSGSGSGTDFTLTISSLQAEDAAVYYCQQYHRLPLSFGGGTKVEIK

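This is the validation round: designs drawn from the data on random variants, tested in the same kind of assay. Their group label is 14L_En_HC (En: ensemble of fine-tuned language models; HC: hill climbing; a sequence that several methods proposed may carry one label only). AlphaSeq pools MATa yeast showing the antibodies with MATalpha yeast showing the peptide. After mating in shaken culture at 30 °C for 16 h, diploids were selected and their barcode pairs sequenced. Each replicate has its own calibration line, from reference interactions of the BCL2 family. Each pool was mated in six replicate cultures.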

The parent's light chain CDRs are KSSQSVLYESRNKNSVA, WASTRES, QQYHRLPLS; each variant's own CDRs replace them letter for letter.
Affinities are written as log10 Kd with Kd in nM; a lower number is a better binder.
A pair that was not seen in that replicate is written "ND"; this usually means weak binding, but a binder can also be missed.

CDR-L1 | CDR-L2 | CDR-L3 | replicates, log10 nM | control signals
HISQSFMQESVWRNNVA | HQSTREQ | QQYDRLPFS | 0.44 0.32 0.23 -0.11 0.36 0.36 | 0 of 18
KLYVSTMLESHNKNSIA | DLSTRGN | QQYHRLPLS | 0.21 -0.07 0.01 0.11 0.15 -0.01 | 0 of 18
MFSQSVMYGSFMRNSVA | QTSTREN | QQYDHLPLS | 1.07 0.70 0.60 1.39 0.54 0.53 | 1 of 18 (2.57)
TISQSVNMTSHGRNSVA | QAEMREA | QQYDRLPLS | ND ND ND 2.17 ND ND | 0 of 18
ILYESVGTLARNKNSVA | DNSTRES | QQYDRLPLS | ND ND 1.76 ND ND ND | 0 of 18
KLSMSMLMESRKKNSVA | ENSTRES | QHYHRLPLS | 1.63 2.41 2.05 3.15 1.78 1.83 | 2 of 18 (3.01)
KLSVMTSYLSVNKNSVA | EMSTREN | QQYDRLPLS | 1.58 2.50 1.91 1.72 1.78 1.93 | 1 of 18 (2.91)
TLGAATLEESRNKNSVA | EMSMREN | QSYNRLPLS | ND ND ND 2.06 2.54 ND | 0 of 18
MISQLFMYGSRNYNSVA | QASTREK | QQYDRLPLI | 1.34 1.28 1.21 1.20 1.02 1.41 | 0 of 18
TLGGVMDMTSKNVNSVA | DLTTRGN | QQYHRLPLS | 0.31 0.17 0.21 -0.01 -0.08 0.29 | 0 of 18
KLYQNVGTMSHNKQSIA | DMERRER | QQYHRLPLS | 0.43 -0.01 -0.07 -0.10 0.10 0.12 | 1 of 18 (1.80)
MSYGGDMLDSVTRNSVA | NAETRED | QDYHRLPLS | 0.64 0.88 0.53 0.35 0.53 0.69 | 1 of 18 (1.43)
MITAMLRGVGRDKNSVA | NAQTRED | QHYHRLPLS | 2.09 ND 2.78 ND 2.23 3.31 | 0 of 18
HISHMWFLESKNKNNVA | EESTRED | QSYFRLPLS | 0.98 0.82 1.18 1.13 0.93 1.65 | 1 of 18 (2.38)
HVSEMIFAQMKARNSVA | ENNTRED | QQYDRLPLS | 0.60 0.46 0.19 0.30 0.48 0.41 | 2 of 18 (1.79)
KLGDYVHTESRNKNSIA | DMRTRES | QQYYRLPLS | -0.34 -0.34 -0.30 -0.32 -0.37 -0.19 | 0 of 18
KLREVQHVETKQKNNVA | DNDTREY | QDYYRLPLS | ND ND ND ND 3.06 ND | 0 of 18
ALSQSMDMTSRNKNSVA | DLDTREN | QQYHRLPLS | 0.10 -0.01 0.01 -0.06 -0.05 0.11 | 0 of 18
SLMQVGGYESNNHSSIA | DLRTRES | QQYHRLPLS | 1.52 1.38 1.17 1.37 1.00 2.09 | 1 of 18 (1.51)
TISQSTQQESHNKNSVA | DLSVRGS | QQYDRLPLS | 0.70 0.50 0.68 0.29 0.07 1.07 | 1 of 18 (1.34)
TISQMLLMQTSHKNNVA | GEETRYS | QQYHRLPLS | 0.60 0.56 0.21 0.54 0.21 0.48 | 0 of 18
KISQSIMFMSGMKNAIA | QMEMREE | QQYHRLPLS | 0.62 0.88 0.79 0.11 0.42 0.92 | 0 of 18
HISQMVMYGSCMKNNVA | QVSTREE | QQYHRLPLS | 1.18 1.19 1.50 ND ND 1.86 | 0 of 18
TLGAATLEESRNKNSVA | EMSLREN | QSYNRLPLS | 0.92 0.96 0.32 0.96 0.77 1.28 | 0 of 18
MFSQGVMVGWLTRNSVA | NSSTREE | QQYHRLPLS | 0.30 0.91 0.51 1.14 0.27 0.77 | 0 of 18
HVSESVLAQSKMKNSVA | ENSTRES | QQYDRLPLS | ND 2.13 2.20 2.38 3.70 2.11 | 4 of 18 (3.35)
TISQLTFVESKNRNNVA | EMTTREN | QDYDRLPLS | 3.43 1.68 ND 2.28 3.89 2.74 | 1 of 18 (2.96)
ILSQSVLMGSHLKNSVA | QASTRFS | QQYFRLPLM | ND ND 0.63 0.90 ND 1.01 | 0 of 18
TISQMTFIESKNRNNVA | EMTTREN | QDYDRLPLS | ND ND ND ND ND ND | 1 of 18 (1.73)
QLSGPMLSESKKKNSVA | EFSTRGS | QQYHRLPLS | 1.57 2.19 1.65 2.31 1.99 2.02 | 0 of 18
HVSESIFAQSKMRNSVA | ENNTRES | QQYDRLPLS | ND ND ND ND 1.71 2.83 | 0 of 18
TLGDVTRMESNKKSSIA | DMSNRAD | QQYHRLPIS | 0.63 0.49 0.60 1.09 0.64 0.55 | 1 of 18 (1.86)
HISMMVGTKGYCKNSVA | NAETRED | QQYHRLPLS | 2.33 1.30 1.61 1.46 1.52 1.37 | 1 of 18 (4.20)
TLTMVQGMESHNMDNVA | DLSTRGS | QQYHRLPLS | 1.55 2.47 ND 3.85 2.01 3.21 | 0 of 18
KLLQEVQGRSQNRNSVA | HNSTRED | QQYDRLPLV | ND 1.81 ND 1.72 ND 2.92 | 1 of 18 (2.59)
KISSLTMYESVEKNNIA | EMTTRPE | QSYHRLPLS | 1.77 1.11 1.05 1.16 0.68 1.01 | 0 of 18
TISQSTYWESFNKNSVA | QTSTRAE | QDYDRLPLS | ND ND ND ND ND ND | 1 of 18 (2.11)
MISQLFMYGSRNINSVA | QASTRES | QQYDRLPLI | ND 1.53 ND ND ND ND | 0 of 18
KIGQQVTYESTVKNAIA | QMTTREE | QQYHRLPLS | 0.35 0.44 0.38 0.22 0.25 0.11 | 0 of 18
KISYQYRFEQLSKSNIA | EVVTRLK | QQYHRLPLS | ND 1.54 ND 2.12 ND 1.41 | 0 of 18
ILSQSVLMGSHLKNSVA | QASTRFD | QQYHRLPLM | 0.82 0.35 0.22 0.32 0.07 1.00 | 0 of 18
TISASMRYESSLKNAIA | NAQTRES | QQYHRLPIS | 0.99 0.83 0.36 0.89 0.52 0.89 | 1 of 18 (2.33)
KLLQAVVGETYQKNNVA | HNSTRED | QEYARLPLS | 1.67 0.90 0.70 0.49 1.40 1.36 | 0 of 18
KLGQSVAMTSRNKNNVA | DLNTRER | QQYHRLPLS | -0.26 -0.13 -0.29 -0.39 -0.18 -0.28 | 0 of 18
TLTQVQGMESHNENSVA | DLSTRGS | QQYHRLPLS | 0.75 0.70 0.59 0.45 0.51 0.46 | 2 of 18 (3.29)
TLTQVQGMMSHNKNSVA | DLSTRGS | QQYHRLPLS | 0.40 0.21 0.06 0.02 0.17 0.34 | 0 of 18

Extract of 6 entries:

{"CDR-L1": "TISASMRYESSLKNAIA", "CDR-L2": "NAQTRES", "CDR-L3": "QQYHRLPIS", "replicates, log10 nM": "0.99 0.83 0.36 0.89 0.52 0.89", "control signals": "1 of 18 (2.33)"}
{"CDR-L1": "KLYVSTMLESHNKNSIA", "CDR-L2": "DLSTRGN", "CDR-L3": "QQYHRLPLS", "replicates, log10 nM": "0.21 -0.07 0.01 0.11 0.15 -0.01", "control signals": "0 of 18"}
{"CDR-L1": "KIGQQVTYESTVKNAIA", "CDR-L2": "QMTTREE", "CDR-L3": "QQYHRLPLS", "replicates, log10 nM": "0.35 0.44 0.38 0.22 0.25 0.11", "control signals": "0 of 18"}
{"CDR-L1": "MISQLFMYGSRNINSVA", "CDR-L2": "QASTRES", "CDR-L3": "QQYDRLPLI", "replicates, log10 nM": "ND 1.53 ND ND ND ND", "control signals": "0 of 18"}
{"CDR-L1": "ILYESVGTLARNKNSVA", "CDR-L2": "DNSTRES", "CDR-L3": "QQYDRLPLS", "replicates, log10 nM": "ND ND 1.76 ND ND ND", "control signals": "0 of 18"}
{"CDR-L1": "TISQSTYWESFNKNSVA", "CDR-L2": "QTSTRAE", "CDR-L3": "QDYDRLPLS", "replicates, log10 nM": "ND ND ND ND ND ND", "control signals": "1 of 18 (2.11)"}

Nonspecific signal, from three strains lacking the peptide, appeared in 4% of pairings of all light chain designs, centred on 2.64 (5% of these signals below 1.59); values are not corrected for it. For each scFv, signals with the empty controls are counted beside the result, with their mean in brackets.
The range of this assay differs from that of the first round, and the authors advise against merging the two.
In the paper, a design with two or fewer of six values counts as a poor binder.
Of ten entries with the parent sequence, four were seen in most replicates (averages 0.34 to 2.37), three in one and three in none, so single entries are noisy.